The results in this text go back to PMC5749684, “Tetrahydrocarbazoles are a novel class of potent P-type ATPase inhibitors with antifungal activity” (PLoS ONE, 2018).

By UniProt entry, the sequences of proteins in these tests, tags left out. Residues count along the entry.
UniProt P05030, whole entry: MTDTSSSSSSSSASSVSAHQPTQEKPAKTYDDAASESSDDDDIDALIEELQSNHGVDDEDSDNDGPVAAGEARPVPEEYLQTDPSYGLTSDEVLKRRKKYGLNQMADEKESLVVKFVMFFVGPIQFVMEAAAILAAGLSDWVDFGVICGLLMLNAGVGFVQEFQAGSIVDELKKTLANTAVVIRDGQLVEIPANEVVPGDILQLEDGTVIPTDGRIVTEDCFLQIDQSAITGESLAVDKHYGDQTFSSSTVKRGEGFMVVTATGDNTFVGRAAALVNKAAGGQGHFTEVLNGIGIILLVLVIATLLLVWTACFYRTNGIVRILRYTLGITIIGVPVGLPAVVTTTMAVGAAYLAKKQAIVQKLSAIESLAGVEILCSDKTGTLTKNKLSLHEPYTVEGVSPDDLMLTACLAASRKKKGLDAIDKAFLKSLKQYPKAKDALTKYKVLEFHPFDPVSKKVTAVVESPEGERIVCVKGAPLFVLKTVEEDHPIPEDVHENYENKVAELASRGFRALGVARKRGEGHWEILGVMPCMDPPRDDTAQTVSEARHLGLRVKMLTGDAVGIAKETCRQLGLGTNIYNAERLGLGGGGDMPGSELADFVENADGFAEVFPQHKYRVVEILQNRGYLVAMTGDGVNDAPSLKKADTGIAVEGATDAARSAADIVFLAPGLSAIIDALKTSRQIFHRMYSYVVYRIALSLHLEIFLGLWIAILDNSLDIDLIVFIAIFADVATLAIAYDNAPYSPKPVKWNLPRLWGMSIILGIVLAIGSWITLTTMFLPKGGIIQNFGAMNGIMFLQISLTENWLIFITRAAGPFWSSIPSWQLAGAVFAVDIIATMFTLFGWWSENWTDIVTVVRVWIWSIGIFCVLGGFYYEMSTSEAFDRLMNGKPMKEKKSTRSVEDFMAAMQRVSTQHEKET
UniProt P04191, 1-994 isoform 2: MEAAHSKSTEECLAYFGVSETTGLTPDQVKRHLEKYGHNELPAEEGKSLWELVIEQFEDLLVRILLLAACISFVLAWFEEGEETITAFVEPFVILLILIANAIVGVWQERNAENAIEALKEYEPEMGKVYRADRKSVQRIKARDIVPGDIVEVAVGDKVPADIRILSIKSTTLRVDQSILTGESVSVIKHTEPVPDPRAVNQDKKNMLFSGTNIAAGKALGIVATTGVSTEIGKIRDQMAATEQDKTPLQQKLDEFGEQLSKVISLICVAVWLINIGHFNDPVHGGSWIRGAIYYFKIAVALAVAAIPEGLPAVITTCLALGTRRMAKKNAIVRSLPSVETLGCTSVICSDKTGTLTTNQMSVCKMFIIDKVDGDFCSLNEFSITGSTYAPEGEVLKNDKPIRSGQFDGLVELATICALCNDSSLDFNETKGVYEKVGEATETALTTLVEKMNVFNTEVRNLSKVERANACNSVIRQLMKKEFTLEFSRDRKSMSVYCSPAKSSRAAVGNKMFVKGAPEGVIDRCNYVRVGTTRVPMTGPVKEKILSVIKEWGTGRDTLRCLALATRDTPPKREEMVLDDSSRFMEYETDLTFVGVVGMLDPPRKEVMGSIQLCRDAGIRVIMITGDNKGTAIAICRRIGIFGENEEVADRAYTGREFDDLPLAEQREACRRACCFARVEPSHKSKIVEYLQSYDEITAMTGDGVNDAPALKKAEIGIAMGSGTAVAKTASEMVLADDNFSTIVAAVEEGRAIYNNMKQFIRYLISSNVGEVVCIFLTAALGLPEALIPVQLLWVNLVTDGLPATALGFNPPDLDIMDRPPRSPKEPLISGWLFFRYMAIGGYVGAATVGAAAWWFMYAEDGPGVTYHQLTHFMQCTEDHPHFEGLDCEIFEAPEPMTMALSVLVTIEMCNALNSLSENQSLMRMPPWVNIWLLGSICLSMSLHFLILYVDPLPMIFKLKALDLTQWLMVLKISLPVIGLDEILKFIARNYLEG

The target of test [1] is Saccharomyces cerevisiae Pma1 (Saccharomyces cerevisiae, UniProt P05030). As to the kind of experiment: ATP hydrolysis inhibition, S. cerevisiae Pma1. It is filed as biochemical. Particulars: Table A in S1 File; for IC50: read-out: ATP hydrolysis IC50 S.cerevisiae Pma1 (Table A). How it is done: The compound libraries were purchased from Enamine Ltd, Ukraine and Chembridge Corp, USA. Library screening was performed in 96 well plates format and each compound was screened in the ATP hydrolysis assay at a final concentration of 20 μM. DMSO was used to determine the maximal ATPase activity and a blank with ATP in absence of Pma1 protein was used to determine the level of spontaneous ATP hydrolysis and used to determine background level. The percentage of compound inhibition was evaluated by subtracting the blank from each data point and normalizing to maximal ATP hydrolysis activity. […] Two-fold dilution plates of the compounds were used to determine Pma1 IC50 and evaluated for fungal growth inhibition against Saccharomyces cerevisiae (baker’s yeast) and Candida albicans (ATCC 90028) in a concentration range of 100 μM to 1.5 μM. Pma1 inhibitory hit compounds (IC50 <20 μM) with antifungal activity on both S. cerevisiae and C. albicans (MIC <100 μM) were re-purchased and re-evaluated to confirm the potency and identity of the compound.
Plasma membranes containing Pma1 were isolated from Saccharomyces cerevisiae RS72 cells containing the full-length cDNA of the S. cerevisiae plasma membrane H^+-ATPase isoform PMA1 under control of the PMA1 promoter as described.
ATPase activity was determined by measuring the amount of liberated phosphate from ATP hydrolysis. The ATPase assay was performed in 96 well plates in a final reaction volume of 60 μL. 0.1–0.2 μg/well of DOC extracted SERCA membrane or the Na^+,K^+-ATPase was used, while 1–2.5 μg/well was used of the Pma1 membrane preparation. Reactions, including protein membrane preparation and various concentrations of exogenously added compounds, were conducted in the following buffers; Pma1 buffer: 17.5 mM MOPS-NaOH pH 7, 7 mM MgSO4, 44 mM KNO3 (vacuolar ATPase inhibitor), 22 mM NaN3 (mitochondrial ATPase inhibitor), 0.22 mM Na2MoO4 (acid phosphatase inhibitor); SERCA buffer: 9 mM MOPS-NaOH pH 7, 2.7 mM MgCl2, 0.1 mM CaCl2 and 72 mM KCl. Na^+,K^+-ATPase buffer: 30 mM MOPS-NaOH pH 7, 40 mM NaCl, 4 mM MgCl2 and 20 mM KCl. […] The amount of liberated phosphate was determined colorimetrically after addition of STOP solution (mixture of L-ascorbic acid, ammonium heptamolybdate tetrahydrate, and HCl to give final concentrations of 65 mM, 2.2 mM, and 189 mM, respectively) with 5 minutes incubation at room temperature (RT) followed by addition of arsenite solution (mixture of NaAsO2, sodium citrate dihydrate, and acetic acid to give final concentrations of 3.1 mM, 28 mM, and 141 mM, respectively). Absorption was measured at 860 nm after additional 30 minutes incubation at RT.

For test [2], the target named is Mammalian Na^+,K^+-ATPase (Sus scrofa, UniProt P05024). As to the kind of experiment: ATP hydrolysis inhibition, Na+,K+-ATPase. Particulars: Table B in S1 File, pig Na+,K+-ATPase. From the text:
(§1) All membrane batches were validated by determining ATPase activity, pH optimum and orthovanadate sensitivity. Sarco/endoplasmatic reticulum (SR) Ca^2+ ATPase was provided in SR membranes purified by extraction with a low concentration of deoxycholate (DOC) and was kindly provided by Claus E. Olesen and Jesper V. Møller, Aarhus University and prepared as described in [43]. The pig kidney Na^+,K^+-ATPase purification included a mild SDS treatment of isolated microsomes followed by a washing step and was kindly provided by Natalya Fedosova, Aarhus University and prepared as described in [44].
(§2) ATPase activity was determined by measuring the amount of liberated phosphate from ATP hydrolysis. The ATPase assay was performed in 96 well plates in a final reaction volume of 60 μL. […] The amount of liberated phosphate was determined colorimetrically after addition of STOP solution (mixture of L-ascorbic acid, ammonium heptamolybdate tetrahydrate, and HCl to give final concentrations of 65 mM, 2.2 mM, and 189 mM, respectively) with 5 minutes incubation at room temperature (RT) followed by addition of arsenite solution (mixture of NaAsO2, sodium citrate dihydrate, and acetic acid to give final concentrations of 3.1 mM, 28 mM, and 141 mM, respectively). Absorption was measured at 860 nm after additional 30 minutes incubation at RT.

For test [3], the target named is Mammalian SERCA (Oryctolagus cuniculus, UniProt P04191). The experiment in a line: ATP hydrolysis inhibition, SERCA. Conditions: read-out: ATP hydrolysis IC50 SERCA (Table B); Table B in S1 File, rabbit SERCA.
Description: as §1, §2

As usually defined, the IC50 is the point on the concentration scale where inhibition reaches its midpoint. `O=C(NC1CCCc2c1[nH]c1ccc(Br)cc21)c1ccccn1` (stereo not shown): in test [1], the “ATP hydrolysis IC50 S.cerevisiae Pma1 (Table A)” value is reported as “Neither of them inhibited Pma1” and the IC50 was greater than 183 µM.

With `CC1Cc2c([nH]c3cc(Cl)c(F)cc23)C2(N1)C(=O)Nc1ccc(Cl)cc12` (stereo not shown), the “ATP hydrolysis IC50 Na+,K+-ATPase (Table B)” value in test [2] is reported as “less potent”. In addition, the results for the IC50 in test [2] (read-out: ATP hydrolysis IC50 Na+,K+-ATPase (Table B)) and in test [3] were 46.7 µM and 1.07 µM, respectively.

With `O=C(NC1CCCc2c1[nH]c1ccc(Br)cc21)c1ccccc1F` (stereo not shown), in test [1], the “ATP hydrolysis IC50 S.cerevisiae Pma1 (Table A)” value is recorded as “Neither of them inhibited Pma1” and the concentration for half-maximal inhibition (IC50) was greater than 183 µM.
